These results are taken from ChEMBL document CHEMBL1131908, “Delta opioid binding selectivity of 3-ether analogs of naltrindole” (Bioorg Med Chem Lett, 1999).

By UniProt entry, the sequences of proteins in these tests, tags left out.
UniProt P33535, whole entry: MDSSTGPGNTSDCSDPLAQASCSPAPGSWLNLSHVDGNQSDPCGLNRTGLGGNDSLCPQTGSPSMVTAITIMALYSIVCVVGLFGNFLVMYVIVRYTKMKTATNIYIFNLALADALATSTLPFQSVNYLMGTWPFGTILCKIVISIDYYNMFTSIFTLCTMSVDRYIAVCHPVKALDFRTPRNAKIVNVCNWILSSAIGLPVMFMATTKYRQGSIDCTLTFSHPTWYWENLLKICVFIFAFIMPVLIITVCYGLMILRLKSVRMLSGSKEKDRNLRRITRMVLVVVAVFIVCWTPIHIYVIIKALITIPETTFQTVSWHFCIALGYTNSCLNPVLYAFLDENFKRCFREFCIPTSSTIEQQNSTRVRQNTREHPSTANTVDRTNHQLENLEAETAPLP

The assay deals with Mu-type opioid receptor (Rattus norvegicus, UniProt P33535). Put plainly: Ability to inhibit binding of [3H]DAMGO to mu opioid receptor.

Each structure is given as a SMILES string.

As to `Oc1ccc2c3c1O[C@H]1c4[nH]c5ccccc5c4C[C@@]4(O)[C@@H](C2)N(CC2CC2)CC[C@]314` [NALTRINDOLE], the Ki – broadly, the equilibrium dissociation constant of an inhibitor or competing ligand from its target – is 3.2 nM. In other words, the single-digit nanomolar range.
